The values that follow come from PubChem BioAssay AID652025 (National Center for Advancing Translational Sciences (NCATS), 2013).

The entries are a selection whose mix differs from that of the whole data set. Calls of active or inactive are those of the source. Cut-off read from the data, not from the text of the source: active = activation above about 50%; inconclusive = mostly about 30% to 49%; inactive = weaker than that.

A short description of this assay: qHTS of IL-2 Activators. Note: 0% is about no effect. Conditions: IL-2 activation reporter assay, cell-based qHTS; stronger effect = higher value; in transgenic mouse T cells; stimulated with anti-CD3/CD4/CD28 beads. An excerpt:
The adaptive immune response against any infectious agent begins with the activation of an antigen specific T cell. This relatively rare and inert ("naive") T cell undergoes a massive proliferative expansion and differentiation process to generate sufficient number of potent pathogen-specific effector T cells. The effector T cells fight the infection by making cytokines and helping other cells to become fully armed as well. If any naive T cell has antigen receptors (TCRs) that can be activated by self peptides, then a variety of regulatory mechanisms kick in to prevent this cell from performing to its full potential. These processes collectively constitute the phenomenon of immunological tolerance and their failure leads to autoimmunity. One arm of tolerance involves generation of biochemical negative feedback downstream of the TCR (tuning). This is especially relevant to self antigens present in the body over long periods of time (chronic), which form the bulk of our proteome. The negative feedback serves to tune the TCR signaling, such that the ambient antigenic stimulation is nullified intracellularly. Unfortunately, this critical machinery serves as a target for chronic viral, bacterial and parasitic infections (as well as tumors), which can evade a robust immune response, simply by allowing T cells to tune down their signaling to pathogen or malignancy derived antigens. As such, disrupting the tuning in such cases would allow the tolerant T cell to function again and deliver a robust effector response.
If a therapeutic can restore responsiveness to the tuned down T cell, even for a short time, they could combat the pathogen without any additional immunization. To that end, we have developed a sensitive HTS T cell based assay based on IL-2. This assay will be screened against the Molecular Libraries Small Molecule Repository (MLSMR) to find small molecules that could elicit this response.
NIH Chemical Genomics Center [NCGC]
NIH Molecular Libraries Probe Centers Network [MLPCN]
Assay Submitter (PI): Ron Schwartz, NIAID
4 microL (750 cells/well) of unstimulated transgenic mouse T cells (columns 1-3,5-48) are dispensed into Aurora LoBase, black clear-bottom 1536-well assay plates; column 4 receives an identical concentration of transgenic memory T cells as a non-tolerant control. Compounds are then transferred via Kalypsys pin tool equipped with 1536-pin array (10 nL slotted pins, V&P Scientific, San Diego, CA). Following addition of compound and a 60 minute incubation, 1 microL of bead stimulation solution ((0.04 micron Fluospheres (Life technologies, CA) coated with 10ug/ml each anti-CD3 and anti-CD4 (clones 2C11 and GK1.5, BD Biosciences, CA) and mixed with 1ug/ml anti-CD28 (clone PV-1, BD biosciences, CA)). columns 2-48) is added to stimulate the IL-2 response pathway; media is instead added to column 1 as an unstimulated control, while PMA/ionomycin (Sigma Aldrich, MO) is added to column 3 as a control for IL-2 tolerance bypass. The plates are then incubated at 37 degrees C for 18 hours. EGFP and DsRed signal are then detected using an Acumen eX3 Explorer fluorescent plate cytometer. All cells are dispensed in cell media containing EHAA (Quality Biologicals, MD), RPMI (Quality Biologicals, MD), Glutamine (Life Technologies, CA), Penicillin/Streptomycin (Quality Biologicals, MD), 2-ME (Sigma Aldrich, MO) and 10% FBS (Gemini Bioproducts, CA) .
On the technique in general: Quantitative high-throughput screening tests each substance at several concentrations.
For the compound `CSc1ccccc1C(=O)NCC1(N2CCCCC2)CCCCC1`, the activation was inactive: 0.921%.

For the compound `Cc1cccc(NC2(C#N)CCN(Cc3ccccc3)CC2)c1`, the activation was inactive: 0.526%.

With `COc1ccc(C(=O)NCC2(N3CCCCC3)CCCCC2)cc1`, the activation was inactive: 2.5%.

Regarding `CC(C)(C)OC(=O)N1CCC(N(C(=O)c2ccccc2)c2ccc(F)cc2)CC1`, the activation is inactive: 0.905%.

With `COc1ccc(C(=O)NCC2(N3CCCCC3)CCCCC2)c(OC)c1OC`, the activation was inactive: -4.1%.

For the compound `CCC(c1nnnn1C1CCCC1)N1CCC(n2c(=O)[nH]c3ccccc32)CC1` (centres undefined), the activation was inactive: -0.0145%.

Turning to `O=C(NCC1(N2CCCCC2)CCCCC1)c1ccc(=O)[nH]c1`, the activation was inactive: -2.44%.

As to `O=C(NCC1(N2CCCCC2)CCCCC1)c1cccs1`, the activation was inactive: 0.059%.

Take `CCCCn1nnnc1C(CC)N1CCC(n2c(=O)[nH]c3ccccc32)CC1` (centres undefined): the activation was inactive: 0.353%.

Take `CCCCn1nnnc1C(c1cccs1)N1CCC(n2c(=O)[nH]c3ccccc32)CC1` (centres undefined): the activation was inactive: -0.376%.

As to `N#CC1(Nc2ccccc2)CCN(Cc2ccccc2)CC1`, the activation was inactive: -0.5%.

As for `O=C(NCC1(N2CCCCC2)CCCCC1)c1ccc(Cl)s1`, the activation was inactive: -3.87%.

Turning to `O=C(OC1CN2CCC1CC2)C1c2ccccc2Oc2ccccc21` (centres undefined), the activation is inactive: -0.641%.

For `O=c1[nH]c2ccccc2n1C1CCN(C(c2cc3ccccc3o2)c2nnnn2C2CCCCC2)CC1` (centres undefined), the activation was inactive: 0.987%.

Turning to `COc1ccc(Cl)cc1C(=O)NCC1(N2CCOCC2)CCCCC1`, the activation is inactive: -3.77%.

As for `O=C1C(O)=C([N+](=O)[O-])C(=O)C(O)=C1[N+](=O)[O-]`, the activation is inactive: 1.66%.

`CCOC(=O)N1CCC(Nc2ccc(OC)cc2)CC1`: the activation is inactive: 3.05%.

For the compound `CCCCn1nnnc1C(c1ccc(OC)cc1)N1CCC(n2c(=O)[nH]c3ccccc32)CC1` (centres undefined), the activation is inactive: -0.111%.

On to `O=C(NCC1(N2CCCCC2)CCCCC1)c1ccc(Cl)nc1`, for which the activation was inactive: 0.896%.

On to `O=c1[nH]c2ccccc2n1C1CCN(C(c2ccccc2OC(F)(F)F)c2nnnn2C2CCCCC2)CC1` (centres undefined), for which the activation was inactive: -0.687%.

For `Cc1cc(C)cc(N(C(=O)c2ccccc2)C2CCN(C(=O)OC(C)(C)C)CC2)c1`, the activation is inactive: -0.598%.

Consider `O=C(NCC1(N2CCOCC2)CCCCC1)c1cc2ccccc2o1`, for which the activation was inactive: -0.266%.

With `O=P1(N(CCCl)CCCl)SCCCS1`, the activation was inactive: 0.179%.

In the case of `CCCCn1nnnc1C(c1cc2ccccc2o1)N1CCC(n2c(=O)[nH]c3ccccc32)CC1` (centres undefined), the activation was inactive: 0.318%.

`CCCCOc1ccc(C(=O)NCC2(N3CCOCC3)CCCCC2)cc1`: the activation is inactive: 0.12%.

With `O=C(NCC1(N2CCCCC2)CCCCC1)c1ccc(F)cc1`, the activation was inactive: -0.424%.

`COc1ccc(NC2CCN(CCc3ccccc3)CC2)c(OC)c1`: the activation was inactive: -1.34%.

For `CCOC(=O)N1CCC(Nc2ccc(F)cc2)CC1`, the activation is inactive: 0.119%.

On to `CC(C)(C)n1nnnc1C(c1ccccc1)N1CCC(n2c(=O)[nH]c3ccccc32)CC1` (centres undefined), for which the activation is inactive: 0.515%.

On to `O=C1CCN(Cc2ccccc2)CC1`, for which the activation was inactive: -0.0607%.

In the case of `CCOc1ccc(C)cc1CN(CCCl)CCCl`, the activation was inactive: -0.908%.

Consider `CCOC(=O)N1CCC(Nc2cccc(C)c2)CC1`, for which the activation is inactive: 2.19%.

Take `COc1cc(C(=O)NCC2(N(C)C)CCCCC2)ccc1OC(F)F`: the activation was inactive: 0.695%.

On to `O=c1[nH]c2ccccc2n1C1CCN(C(c2cccc3ccccc23)c2nnnn2C2CCCC2)CC1` (centres undefined), for which the activation was inactive: -0.655%.

In the case of `O=c1[nH]c2ccccc2n1C1CCN(C(c2ccccc2)c2nnnn2C2CCCCC2)CC1` (centres undefined), the activation is inactive: 0.884%.

Turning to `CCN1CCC(Nc2ccc(Cl)cc2)CC1`, the activation is inactive: 1.22%.

As to `O=c1[nH]c2ccccc2n1C1CCN(C(c2ccccc2OC(F)(F)F)c2nnnn2C2CCCC2)CC1` (centres undefined), the activation is inactive: -0.27%.

As to `N#CC1(Nc2ccccc2)CCN(CCc2ccccc2)CC1`, the activation is inactive: -0.0177%.

For `CSc1ccc(C(=O)NCC2(N3CCOCC3)CCCCC2)cc1`, the activation was inactive: -1.37%.

Turning to `O=C(NCC1(N2CCCCC2)CCCCC1)c1cccc([N+](=O)[O-])c1`, the activation was inactive: -0.0293%.

On to `CC(C)(C)n1nnnc1C(c1ccccc1OC(F)(F)F)N1CCC(n2c(=O)[nH]c3ccccc32)CC1` (centres undefined), for which the activation was inactive: -0.382%.

In the case of `O=C(NCC1(N2CCCCC2)CCCCC1)c1ccc(OC(F)F)cc1`, the activation was inactive: -0.731%.

Consider `COc1cc(C(=O)NCC2(N3CCCCC3)CCCCC2)ccc1OC(F)F`, for which the activation is inactive: -3.24%.

With `O=C(NCC1(N2CCOCC2)CCCCC1)c1cc(=O)[nH]c2ccccc12`, the activation was inactive: 0.24%.
